Laboratory results from patent publication US20230165965A1, “NEW COUMARIN-POLYMER CONJUGATES AND USES THEREOF” (Onyel Biotech S.r.l., priority 2020, published 2023).

Columns and labels:
[1] = 2P absorption patterning and 2P hydrogel polymerization; assay type: physicochemical; settings: 2P excitation, 700<λ<950 nm, constant power
Method: For 2P absorption, HCC-PEG was patterned onto HCCA-functionalised glass coverslips following the highly spatially localized 2P excitation given by a multiphoton laser-scanning microscope. HCCA-functionalization on coverslip was achieved as follows. Coverslips were cleaned and extensively rinsed with deionized water and finally oxidized by the PDC-002-CE Plasma Cleaner (Harrick Plasma, Ithaca, N.Y., USA) for 30 seconds. The glass slide was incubated in a 2% (v/v) APTES solution in absolute ethanol (300 μL) under gently stirring. After 6 minutes, the substrate was washed three times with ethanol to remove unbound APTES and finally dried at 110° C. for 2 hours. […] 2P microscope was used to irradiate surfaces in contact with HCC-PEG solution and produce 2P cross-linked area of 850×850 μm^2, 425×425 μm^2 and 280×280 μm^2 (laser wavelength of 800 nm; laser power 0.7 mW measured before objective back aperture: writing time of 1.14 ms/line and rate of 1.72 frame/s; 4 frame per plane).
With the aim to provide glass surface HCCA-groups for covalent bonding HCC-branched polymers solutions were drop-cast onto glass coverslip previously functionalized with HCCA- as described in Section 10. […] Laser power is measured before objective back aperture, corresponding to about 1% of the power on the sample plane. […]

[2] = Atomic force measurement (AFM) of hydrogel Young's modulus; assay type: physicochemical
Method: With the aim to provide glass surface HCCA-groups for covalent bonding HCC-branched polymers solutions were drop-cast onto glass coverslip previously functionalized with HCCA- as described in Section 10. HCC-4arm PEG and HCC-8arm PEG were dissolved in PBS (300 mg/mL) at room temperature under agitation. HCC-Gel was dissolved in PBS (100 mg/mL) under agitation at 60° C. for 10 min. When coverslips were used, a second coverslip was placed on top of the drop of HCC-polymeric solutions to limit water evaporation during the irradiation process. […] Laser power is measured before objective back aperture, corresponding to about 1% of the power on the sample plane. […]
For crosslinking reaction analysis, 5 μL CMMC-4 arm PEG (300 mg/mL) or CMMC-Gel (100 mg/mL) solution was located in a humid chamber at 3 cm from a 365 nm UV LED Gen 2 Emitter LZ4-04UV00 (Led Engin) and irradiated for different minutes as reported. When CMMC-Gel solution was analysed at different concentrations (100 mg/mL, 120 mg/mL, 140 mg/mL, 160 mg/mL, 180 mg/mL and 200 mg/mL), 5 μL of solution was located in a humid chamber at 3 cm from a 365 nm UV LED Gen 2 Emitter LZ4-04UV00 (Led Engin) and irradiated for 3 minutes. […]
The Young's modulus was calculated applying a fit of the Hertz model to the force curve, assuming a Poisson ratio of 0.5. […]

[3] = system: human small intestinal organoids (hSIOs)
Source text: ImageJ software were used for adjustments of levels and contrast, maximum and standard deviation intensity projections, 3D reconstructions and thresholding to create binary mask used for directionality and ferret angle measurements. To quantify the directionality of i3D bioprinted cells, at least 9 fluorescence images of independent biological triplicates for each sample were converted in binary masks, then analyzed with directionality plugin of ImageJ software (that indicates the amount of structures in a given direction). To quantify the shape of enclosed hSIOs, at least 9 fluorescence images of independent biological triplicates for each sample were converted in binary masks, then analyzed with measure plugin of ImageJ software to quantify the Feret's angle (the angle between the longest distance of the axis of any two points along the selection boundary (Feret's diameter) and a line parallel to the x-axis of the image).

skeletal muscle = assay: i3D printing into muscle across epimysium; assay type: in vivo, mice; settings: 1 mW and 2 mW laser power, under epimysium
Method: Mice were anaesthetized using i.p. injection of Zoletil® 50/50 (40 mg/kg) and Rompun® 2% Xilazina (5 mg/kg) in physiologic solution. Induction of deep surgical anaesthesia was confirmed by absence of reaction to hind foot pinch. The surgical procedure underwent in aseptic conditions (skin preparation, sterilized instruments, gloves and drapes). […] For blood flow analysis, Rhodamine B isothiocyanate-Dextran (Sigma, R9379) was injected in tail vein at 50 mg/mL in physiologic solution. When required, skin wound was closed with Vicryl 6-0 suture and no movement or space restriction were applied to animals after treatments. At the required time point, animals were deeply anesthetized, subjected to stereomicroscope and/or 2P intravital imaging, then sacrificed for tissues collection.

hES-derived NSCs = settings: three days after seeding, pre-assembled flat hydrogels
Fibroblasts (FBs) = settings: six hours after hydrogel crosslinking
wild type mice = settings: subcutaneous injection, wild type mice, 4, 7 and 21 days

7-hydroxycoumarin-3-carboxamide-gelatin [HCC-Gel]
stability of single 3D objects after removal of non-crosslinked solution [1]: remained stable
elastic modulus of hydrogel fabricated in Matrigel vs in absence of Matrigel ([2]; 2P crosslinking, after Matrigel dissociation): comparable elastic modulus
reduction of Young's modulus in presence of cells ([2]; cell-laden bioprinted structures): about 6%
cytocompatibility on enclosed hSIOs by live/dead assay ([3]; after 2 days and 8 days of culture): cytocompatibility on hSIOs enclosed in the structures was demonstrated
hSIO viability / survival and growth in culture ([3]; polymer combined with Matrigel): support the viability and the growth
myofiber contraction and heat-induced tissue damage during i3D bioprinting (skeletal muscle): No myofiber contraction nor heat-induced tissue damage
neural markers and apoptosis of hES-derived NSCs (hES-derived NSCs): expression of specific neural markers and absence of apoptosis
viability of FBs in cell-laden hydrogel (Fibroblasts (FBs)): viable
histology, TUNEL and macrophage staining vs PBS (wild type mice): no evident histological modification, cell apoptosis or macrophage infiltration
